Screening data as filed in PubChem.
Epigenetic reg: epigenetic control regulation, reporter derepression; murine LDR cells, GFP reporter derepression, 30 h; 280,000 tested, 0.2% active; Potency, µM (doses to about 53.9 µM), usual class: activators; also: nearly all actives have a fitted effect of over 60% in size
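Readout is the number of GFP-expressing murine LDR cells, counted by cytometry following washing. Cells were treated with compound for 30 h at 37 C; the stably integrated CMV-GFP locus is normally silent.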
Vif-A3F inh: inhibitors of Vif-A3F interaction. HeLa A3F-eYFP + Vif (tagged APOBEC3F with the HIV-1 protein that degrades it), YFP fluorescence increase. 390,000 tested, 0.2% active. AID 602313. Potency, µM (series often up to 46.1 µM); also: nearly all actives have a fitted effect of over 65% in size
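HeLa cells stably expressing A3F-eYFP plus Vif, plated and incubated overnight at 37 deg C, then exposed to compounds overnight at 37 deg C. Blocked degradation read as raised yellow fluorescence (Ex 488/Em 500-530).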
Vif-A3G inh: inhibitors of Vif-APOBEC3G interaction; Q9HC16; Potency, µM (series often up to 46.1 µM), actives largely listed as inhibitors; 410,000 tested, 0.076% active; HeLa A3G-eYFP + Vif (tagged APOBEC3G with the HIV-1 protein that degrades it), YFP fluorescence, overnight; also: nearly all actives have a fitted effect of over 60% in size
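HeLa cells stably expressing Vif and C-terminally eYFP-tagged A3G, seeded overnight at 37 deg C, then exposed to compound by pintool overnight at 37 deg C. Rise in yellow fluorescence (Ex 488/Em 500-530, Acumen) marks blocked Vif-driven A3G degradation.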
miR-21 reporter: miR-21 reporter, rising signal | HeLa miR-21 FLuc reporter, luciferase, 48 h | Potency, µM (doses to about 38.3 µM) | 340,000 tested, under 10 active | AID 2288; active = well fitted rising curve with a large enough effect; inconclusive = small, poorly fitted or top-dose-only effect; inactive = no such curve, though single readings can be large or run the other way;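 note: miR-21 action dims this reporter so a rising signal means less miR-21 action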
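Compounds were titrated across several concentrations (up to approximately 40 uM) and incubated 48 hours with HeLa miR-21-FLuc reporter cells (miR-21 target sequence downstream of FLuc, endogenous miR-21). Readout was firefly luciferase luminescence after lytic detection reagent.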
Each line names hits and unclear results; the compound was inactive in the other large screens. Sampled rows, rich in hits. Any-hit rate of the full collection: about 0.34%. Unless noted, calls follow the shape of the dose curve; as a rule, active = well fitted curve in the direction sought with a large enough effect; inconclusive = small, poorly fitted or top-dose-only effect, or another doubt; inactive = no such curve, though single readings can be large; an effect the other way counts as inactive or inconclusive.

CCN(CC)c1ccc2cc(-c3nc4sc5c(c4c(=O)[nH]3)CCC(C(C)(C)C)C5)c(=O)oc2c1 (stereo not given)	Vif-A3F inh inconclusive, Vif-A3G inh 10µM
CC(C)(C)C1CCc2c(sc3nc(-c4cc5ccccc5oc4=O)[nH]c(=O)c23)C1 (stereo not given)	none
Cn1cc(-c2ccccc2C(N)=O)c(=O)c2cc(Cl)ccc21	none
Cn1cc(C2=C(c3ccc(Cl)cc3Cl)C(=O)NC2=O)c2ccccc21	Epigenetic reg 14.1µM, Vif-A3F inh inconclusive, Vif-A3G inh inconclusive
CC(C)(C)n1ncc2c(=O)n(Cc3ccccc3Cl)cnc21	none (no result: Epigenetic reg, Vif-A3F inh, miR-21 reporter)
CN1C/C(=C\c2ccc(N3CCOCC3)cc2)C(=O)/C(=C/c2ccc(N3CCOCC3)cc2)C1	Epigenetic reg inconclusive, Vif-A3F inh 25.1µM, Vif-A3G inh inconclusive
CCc1ccc(/C=C2/SC(N3CCOCC3)=NC2=O)cc1	none
CCN1C/C(=C/c2ccc(N3CCOCC3)cc2)C(=O)/C(=C/c2ccc(N3CCOCC3)cc2)C1	Epigenetic reg inconclusive, Vif-A3F inh 25.1µM, Vif-A3G inh 10µM, miR-21 reporter inconclusive
N#CC1=C(S)N(c2ccccc2)C(c2ccc(-c3cccc(Cl)c3)o2)NC1=O (stereo not given)	Vif-A3F inh 7.08µM
Cc1cccc(N2C(S)=C(C#N)C(=O)NC2c2ccco2)c1 (stereo not given)	Vif-A3F inh inconclusive
O=C(Nc1cccc(C(=O)OCc2cc(=O)n3nc(C4CC4)sc3n2)c1)c1cccc(Cl)c1	Epigenetic reg 15.8µM
O=C(Nc1ccc(C(=O)OCc2cc(=O)n3nc(C4CC4)sc3n2)cc1)c1cccc(Cl)c1	none
O=C1N(Cc2cccc(C(F)(F)F)c2)c2ccccc2S(=O)(=O)N1c1cccc(Cl)c1	none
S=C(NC1CCCCC1)N(CCc1ccccc1)CCc1ccccc1	Vif-A3F inh 7.08µM
OCCN(Cc1ccccc1)C(=S)NC1CCCCC1	none
COc1ccc(CNC(=O)c2cc(C)nc3c2c(C)nn3-c2cccc(Cl)c2C)cc1	none
CCOc1ccc(NC(=O)N2CC=C(c3c[nH]c4ccccc34)CC2)cc1	Epigenetic reg inconclusive, Vif-A3F inh 28.2µM, Vif-A3G inh inconclusive
CCOC(=O)c1cccc(NC(=O)N2CC=C(c3c[nH]c4ccccc34)CC2)c1	Epigenetic reg inconclusive, Vif-A3F inh 5.01µM, Vif-A3G inh inconclusive
CCc1ccc(NC(=O)N2CC=C(c3c[nH]c4ccccc34)CC2)cc1	Epigenetic reg inconclusive (no result: Vif-A3F inh, Vif-A3G inh)
CCOC(=O)c1ccc2c(c1)N(CC(=O)N(C)c1ccccc1)C(=O)c1ccccc1S2	none
O=C(O)Cc1sc(NC2CCCCC2)nc1-c1ccc(Cl)cc1	Vif-A3F inh 25.1µM (no result: Epigenetic reg)
O=[N+]([O-])c1ccc(N/N=C/C=C/c2ccco2)cc1	Vif-A3F inh 11.2µM, Vif-A3G inh inconclusive (no result: Epigenetic reg, miR-21 reporter)
O=C(O)c1ccc(N/N=C/C=C/c2ccc([N+](=O)[O-])o2)cc1	Vif-A3F inh inconclusive, Vif-A3G inh inconclusive (no result: Epigenetic reg)
CNC(=O)/C(C#N)=C/c1ccc(-c2ccc(Cl)cc2)o1	none
Cc1ccc(NC(=O)/C(C#N)=C\c2ccc(-c3ccc(Cl)cc3)o2)c(C)c1	Epigenetic reg 3.55µM, Vif-A3F inh 3.16µM
Cc1ccccc1C(=O)Nc1ccc(S(=O)(=O)N2CCC(c3nc4ccccc4s3)CC2)cc1	none
COc1cc(/C=C2\SC(=O)N(CCNC(=O)c3sc4cc(F)ccc4c3Cl)C2=O)cc(OC)c1OC	Epigenetic reg 17.8µM
CCOC(=O)N1CCc2c(sc3c2c(=O)n(-c2ccc(F)cc2)c(=O)n3CC(=O)c2ccc(Cl)cc2)C1	Epigenetic reg 15.8µM, Vif-A3F inh inconclusive
CCOC(=O)N1CCc2c(sc3c2c(=O)n(-c2ccc(CC)cc2)c(=O)n3CC(=O)c2ccc(F)cc2)C1	none
Cc1ccc2c(C)nc(Nc3nc(CSc4nc5ccccc5[nH]4)cc(=O)[nH]3)nc2c1	Epigenetic reg 35.5µM
Cc1ccc(SCc2cc(=O)[nH]c(Nc3nc(C)c4ccc(C)cc4n3)n2)cc1	none
CCN(CC)c1ccc2c(Cl)c(Br)c(=O)oc2c1	Epigenetic reg 11.2µM, Vif-A3F inh inconclusive, Vif-A3G inh inconclusive
CCN(CC)c1ccc2c(C)c(Cl)c(=O)oc2c1	none
COc1ccc(F)c(Cn2cnc3c(cnn3C(C)(C)C)c2=O)c1Cl	none (no result: Epigenetic reg, Vif-A3F inh, miR-21 reporter)
COc1ccc(NC(=O)c2c(NC(=O)CNCc3ccco3)sc3c2CCC3)cc1	Epigenetic reg 25.1µM
COC(=O)c1ccc(NC(=O)c2cc(S(=O)(=O)N3CCc4ccccc43)cn2C)cc1	none
CCN1CCc2c(sc(-n3cccc3)c2C(CCC(C)C)NC(=O)NCCC(=O)OC)C1 (stereo not given)	none
CCN1CCc2c(sc(-n3cccc3)c2C(C)NC(=O)Nc2ccc(C(=O)OC)cc2)C1 (stereo not given)	Vif-A3F inh 22.4µM, Vif-A3G inh inconclusive
CCCN(C(=O)CSc1n[nH]c(-c2ccc(OC)cc2)n1)c1c(N)n(Cc2ccccc2)c(=O)[nH]c1=O	Vif-A3F inh 25.1µM (no result: Epigenetic reg, miR-21 reporter)
COc1ccc(-c2nc(SCC(=O)N(CC(C)C)c3c(N)n(Cc4ccccc4)c(=O)[nH]c3=O)n[nH]2)cc1	none (no result: Epigenetic reg, miR-21 reporter)
Cc1cc(NC(=O)CSc2nc3c(C)cccc3cc2C#N)no1	Vif-A3F inh 11.2µM, Vif-A3G inh inconclusive (no result: Epigenetic reg)
Cc1cccc2cc(C#N)c(SCC(=O)N3CC(=O)Nc4ccccc43)nc12	Epigenetic reg 20µM, Vif-A3F inh inconclusive, Vif-A3G inh inconclusive
Cc1cc(NC(=O)CSc2nc3c(C)ccc(C)c3cc2C#N)no1	Vif-A3F inh inconclusive (no result: Epigenetic reg)
CCc1cccc(NC(=O)Cn2c(-c3ccc(F)cc3)cc(C(C)=O)c2C)c1	none
N#Cc1ccc(/C=C\c2nccc3c2[nH]c2ccccc23)cc1	Epigenetic reg inconclusive, Vif-A3F inh inconclusive, Vif-A3G inh 12.6µM
Clc1ccc(/C=C\c2nccc3c2[nH]c2ccccc23)cc1	Vif-A3F inh inconclusive
CCN(CC)c1ccc(/C=c2/sc3nnc(-c4ccccc4C)n3c2=O)cc1	Vif-A3F inh 1.26µM
COc1ccc(OC)c(NC(=O)Cn2c(=O)n(-c3cccc(C)c3)c(=O)c3c2c2cc(C)ccc2n3C)c1	Epigenetic reg inconclusive
Cc1ccccc1Cn1cc(NC(=O)c2cc3nc(-c4ccco4)cc(C(F)(F)F)n3n2)cn1	none
CCc1ccc(-c2cc(C(F)(F)F)n3nc(C(=O)Nc4cnn(Cc5ccc(C)cc5)c4)cc3n2)s1	Epigenetic reg inconclusive, Vif-A3F inh 11.2µM, Vif-A3G inh inconclusive
Cc1ccc(/C=C2\CCC3=C2OC(N)=C(C#N)C3c2ccc(C)cc2)cc1 (stereo not given)	Epigenetic reg 11.2µM, Vif-A3F inh inconclusive, Vif-A3G inh inconclusive
COc1ccc(N=Cc2c(O)c3ccccc3n2C(C)=O)cc1	Vif-A3F inh 12.6µM, Vif-A3G inh 12.6µM
COc1ccc(N=Cc2c(OC)ccc3ccccc23)cc1	none (no result: Epigenetic reg, miR-21 reporter)
COc1ccc(N=Cc2sc(O)c3ccccc23)cc1	Epigenetic reg 10µM, Vif-A3G inh 12.6µM
COc1ccc(-n2c(O)c(C=Nc3ccccc3)c3ccccc3c2=O)cc1	none
O=C(NCCn1cc(SCc2ccccc2Cl)c2ccccc21)c1cccs1	Epigenetic reg inconclusive
CCOCc1cc(CN2CCN(c3cccc(Cl)c3)CC2)c(O)c2ncccc12	Epigenetic reg 3.55µM
